Experimental data taken from US20240317696A1, “ALKYL CARBOXYLIC ACID COMPOUNDS AND APPLICATION THEREOF” (MEDSHINE DISCOVERY INC., priority 2021, published 2024).
pEC50: −log10 of the molar value.

By UniProt entry, the sequences of proteins in these tests, tags left out.
UniProt Q02153, whole entry: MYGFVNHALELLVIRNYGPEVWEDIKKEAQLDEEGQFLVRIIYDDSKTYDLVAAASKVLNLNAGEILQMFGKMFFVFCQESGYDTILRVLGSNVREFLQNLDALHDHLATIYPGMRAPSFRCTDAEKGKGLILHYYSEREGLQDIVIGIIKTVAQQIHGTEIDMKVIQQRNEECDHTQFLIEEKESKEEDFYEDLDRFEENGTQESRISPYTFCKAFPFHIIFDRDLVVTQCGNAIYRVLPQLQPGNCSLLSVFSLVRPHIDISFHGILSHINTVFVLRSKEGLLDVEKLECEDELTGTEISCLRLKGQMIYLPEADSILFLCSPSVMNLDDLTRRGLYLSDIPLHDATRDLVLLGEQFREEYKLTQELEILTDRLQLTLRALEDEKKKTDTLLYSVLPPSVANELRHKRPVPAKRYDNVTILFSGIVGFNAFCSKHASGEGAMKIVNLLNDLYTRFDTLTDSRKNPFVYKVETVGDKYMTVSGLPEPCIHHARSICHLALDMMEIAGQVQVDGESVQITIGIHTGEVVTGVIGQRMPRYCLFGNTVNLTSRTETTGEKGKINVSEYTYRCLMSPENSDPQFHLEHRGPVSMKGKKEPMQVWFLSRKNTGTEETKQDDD
UniProt Q02108, whole entry partner: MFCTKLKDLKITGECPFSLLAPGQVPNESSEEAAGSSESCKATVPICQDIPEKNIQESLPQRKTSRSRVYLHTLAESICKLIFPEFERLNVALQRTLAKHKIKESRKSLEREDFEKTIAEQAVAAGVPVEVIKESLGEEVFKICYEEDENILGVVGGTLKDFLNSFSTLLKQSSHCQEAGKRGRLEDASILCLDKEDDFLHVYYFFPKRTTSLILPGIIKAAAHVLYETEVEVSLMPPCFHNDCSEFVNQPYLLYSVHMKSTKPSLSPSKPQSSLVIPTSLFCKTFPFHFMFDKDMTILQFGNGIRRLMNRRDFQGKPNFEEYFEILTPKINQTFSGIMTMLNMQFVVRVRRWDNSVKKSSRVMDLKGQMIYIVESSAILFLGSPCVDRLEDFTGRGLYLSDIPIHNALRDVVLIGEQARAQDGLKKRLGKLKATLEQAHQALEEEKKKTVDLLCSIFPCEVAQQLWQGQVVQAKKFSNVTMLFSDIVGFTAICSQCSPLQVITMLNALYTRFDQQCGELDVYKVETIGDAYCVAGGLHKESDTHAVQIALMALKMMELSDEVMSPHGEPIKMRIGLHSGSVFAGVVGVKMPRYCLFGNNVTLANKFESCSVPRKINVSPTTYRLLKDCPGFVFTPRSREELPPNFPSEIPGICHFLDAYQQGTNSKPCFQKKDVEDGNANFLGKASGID

Experiments:
sGC = sGC (Homo sapiens (Human), UniProt Q02153); experiment: cGMP expression test based on LNCap cells (sGC stimulatory activity); settings: ODQ present; for MEC: Minimum effective concentration required to stimulate cGMP production in LNCap cells (greater than three times the baseline value); for pEC50: cGMP production in LNCap cells
Experimental: I. cGMP Expression Test Based on InCap Cells
(1) The compound was diluted to a concentration of 10 mM using DMSO.
(2) A serial dilution of the compound was performed, resulting in 10 different concentration levels of each compound. 100 nL of each diluted compound was added to a 96-well plate.
3) Preparation of LNCap Cells
(1) LNCap culture medium: RPMI1640 supplemented with 10% fetal bovine serum (FBS) and 1% double antibody
(9) Assay buffer was added, and the cell concentration was adjusted to 3×10^6/mL.
4) Preparation and Addition of ODQ Solution
(1) 10 mM ODQ stock solution was diluted at a ratio of 1:1000 and added to the cell solution.
(2) After thorough mixing, the solution was added to a microplate at 10 μL per well.
5) Preparation of cGMP Standard Curve
(1) 1 mM cGMP stock solution was diluted to 10 μM using assay buffer. 11 concentration gradients were created through 4-fold serial dilutions.
(2) The diluted cGMP was added to the microplate at 10 μL per well.
6) Addition of Assay Reagents and Plate Reading
(1) cGMP-D2 was transferred to a 384-well plate at 5 μL per well. Anti-cGMP cryptate was transferred to a […] at 5 μL per well. Centrifugation was performed at 1500 rpm for 1 minute.
(2) Incubation was carried out at room temperature for 1 hour.
(3) The plates were read using envision at 665/615 wavelengths.
(1) cGMP standard curve: A standard curve was generated using GraphPad Prism, based on the ratio of cGMP concentration to the 665/615 wavelength values.
(2) Conversion of HTRF (homogeneous time-resolved fluorescence) ratio (665/615) to cGMP concentration: In GraphPad Prism, the HTRF ratio (665/615) was copied to the ratio column of the cGMP standard curve. The analysis “Log inhibitor vs response-variable slope” was run, and the “interpolate” option was selected to convert the HTRF ratio (665/615) into cGMP concentration.
(3) Compound activation curve: A curve was generated using the “Log agonist vs response-variable slope” analysis method in GraphPad Prism, based on the converted cGMP concentration and compound concentration.

[1] = In vivo pharmacokinetic property study in male Sprague Dawley rats
Experimental: Experimental objective: The aim of this study was to determine the pharmacokinetic parameters of the compound in male Sprague Dawley rats.
Sprague Dawley rats (male, 200 to 300 g, 7 to 9 weeks old, procured from Shanghai SLAC)
For this project, four male Sprague Dawley rats were used. Two rats in one group were administered the compound intravenously at a dosage of 2 mg/kg and a concentration of 0.4 mg/mL. Two rats in another group were administered the compound orally at a dosage of 10 mg/kg and a concentration of 1 mg/mL. Plasma samples were collected 0.083 (intravenous group only), 0.25, 0.5, 1, 2, 4, 6, 8, and 24 hours after administration. The collected samples were then analyzed using LC-MS/MS and data were collected. The collected analytical data were processed using Phoenix WinNonlin 6.3 software to calculate relevant pharmacokinetic parameters.

SMILES	MEC (sGC)	pEC50 (sGC)	further results
Cc1ccc(C(CC(=O)O)C23CC(F)(C2)C3)cc1NC(=O)[C@H](c1ccc(Cl)cc1)[C@@H](C)C(F)(F)F (single isomer, unassigned)	25.92 nM	7.18	–
C[C@H]([C@H](C(=O)Nc1cc(C(CC(=O)O)C2CCCC2)ccc1Cl)c1ccc(Cl)cc1)C(F)(F)F (single isomer, unassigned)	–	7.56	–
C[C@H]([C@H](C(=O)Nc1cc(C(CC(=O)O)C2CCCO2)ccc1Cl)c1ccc(Cl)cc1)C(F)(F)F (single isomer, unassigned)	9.83 nM	7.09	–
C[C@H]([C@H](C(=O)Nc1cc(C(CC(=O)O)C23CC(F)(C2)C3)ccc1Cl)c1ccc(Cl)cc1)C(F)(F)F (single isomer, unassigned)	7.92 nM	7.47	–
COC12CC(C(CC(=O)O)c3ccc(Cl)c(NC(=O)[C@H](c4ccc(Cl)cc4)[C@@H](C)C(F)(F)F)c3)(C1)C2 (single isomer, unassigned)	0.82 nM	7.78	AUC ([1]; iv 2 mg/kg): 9.147 µM·h; Cl ([1]; iv 2 mg/kg): 6.7 mL/min/kg; T1/2 ([1]; iv 2 mg/kg): 2.38 h; Vdss ([1]; iv 2 mg/kg): 0.67 L/kg; AUC ([1]; po 10 mg/kg): 36.252 µM·h; T1/2 ([1]; po 10 mg/kg): 2.72 h; % F ([1]; po 10 mg/kg vs iv 2 mg/kg): 79.4%

More lines, main results first:

MEC (sGC)	pEC50 (sGC)	SMILES	further results
33.06 nM	7.54	C[C@H]([C@H](C(=O)Nc1cc(C(CC(=O)O)C23CC(F)(C2)C3)ccc1F)c1ccc(Cl)cc1)C(F)(F)F (single isomer, unassigned) [WX009]	–
0.95 nM	8.38	C[C@H]([C@H](C(=O)Nc1cc(C(CC(=O)O)C23CC(F)(C2)C3)ccc1F)c1ccc(Cl)cc1)C(F)(F)F (single isomer, unassigned) [WX008]	–
